According to ChEMBL document CHEMBL5252638, “Novel triphenylphosphonium amphiphilic conjugates of glycerolipid type: synthesis, cytotoxic and antibacterial activity, and targeted cancer cell delivery” (RSC Med Chem, 2023):

Tests used:
Homo sapiens [1] = species on record: Homo sapiens; assay: Selectivity index, ratio of IC50 for human Chang liver cells to IC50 for human PC-3 cells
Homo sapiens [2] = species on record: Homo sapiens; assay: Selectivity index, ratio of IC50 for human Chang liver cells to IC50 for human SK-OV-3 cells

`O=c1[nH]cc(F)c(=O)[nH]1` [FLUOROURACIL] was tested, and the Ratio IC50 (Homo sapiens [1]) was 1.9 and the Ratio IC50 (Homo sapiens [2]) was 1.3.
